# Ab-95 light chain CDR variants: yeast mating affinities

The target is the same throughout: PDVDLGDISGINAS, from the HR2 region of SARS-CoV-2 spike.

Ab-95 is the parent antibody, in scFv form: VH, then a 15-residue (Gly4Ser)3 linker, then VL. The heavy chain is unchanged in all variants.
VH: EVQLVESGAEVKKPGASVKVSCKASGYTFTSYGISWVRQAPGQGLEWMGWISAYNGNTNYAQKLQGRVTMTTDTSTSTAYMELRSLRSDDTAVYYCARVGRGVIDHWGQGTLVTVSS
VL: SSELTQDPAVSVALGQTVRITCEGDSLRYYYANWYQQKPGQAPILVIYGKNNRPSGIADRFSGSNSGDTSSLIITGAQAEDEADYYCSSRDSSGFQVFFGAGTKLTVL

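The parent was found by panning a naive human phage display library on the peptide. Variants in AAYL52 differ from the parent at up to three CDR positions; double and triple changes were sampled at random. AlphaSeq pools MATa yeast showing the antibodies with MATalpha yeast showing the peptide. Mating (16 h, 30 °C) was followed by selection of diploids and sequencing of their barcodes. A regression on co-assayed BCL2-family reference pairs converts the normalised counts of each replicate to an apparent Kd. Mating was done three times.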

Each variant is given by its three light chain CDRs, as the data file delimits them; those of the parent are EGDSLRYYYAN, GKNNRPS, SSRDSSGFQVF. Affinities are written as log10 Kd with Kd in nM; a lower number is a better binder. An entry "nd" has no value in the source: the pair was not observed among the diploids in that replicate. This suggests poor binding but is not conclusive. For reference, the parent read 2.31 as the reference entry and 2.25 as a member of this library.

{"CDR-L1": "EGDSLRYYAAN", "CDR-L2": "GKNNRPS", "CDR-L3": "SSRDSAGFQVF", "log10 Kd, replicates": "1.56 1.88 1.31", "signal with controls": "1/9 (4.78)"}
{"CDR-L1": "EGDSLRYYWAN", "CDR-L2": "GKNYEPS", "CDR-L3": "SSRDSSGFQVF", "log10 Kd, replicates": "3.17 3.55 nd", "signal with controls": "4/9 (3.59)"}
{"CDR-L1": "EGDGLRYYYAN", "CDR-L2": "GKNNRCS", "CDR-L3": "SSRDSIGFQVF", "log10 Kd, replicates": "2.97 3.29 3.33", "signal with controls": "2/9 (4.40)"}
{"CDR-L1": "EGDSLRYYYAN", "CDR-L2": "GKEKFPS", "CDR-L3": "SSRDSSGFQVF", "log10 Kd, replicates": "3.51 nd 4.54", "signal with controls": "2/9 (4.03)"}
{"CDR-L1": "EGDSLAYYYAN", "CDR-L2": "GKKNRPS", "CDR-L3": "PSRDSSGFQVF", "log10 Kd, replicates": "nd nd nd", "signal with controls": "0/9"}
{"CDR-L1": "EGDSLRYYYEN", "CDR-L2": "GKQNRPW", "CDR-L3": "SSRDSSGFQVF", "log10 Kd, replicates": "5.23 nd 3.80", "signal with controls": "3/9 (3.50)"}
{"CDR-L1": "EGDSLRIYRAN", "CDR-L2": "GKTNRPS", "CDR-L3": "SSRDSSGFQVF", "log10 Kd, replicates": "nd nd nd", "signal with controls": "3/9 (4.09)"}
{"CDR-L1": "EGDSLRYYYDW", "CDR-L2": "GKNNRPS", "CDR-L3": "SSRDSSAFQVF", "log10 Kd, replicates": "4.64 4.06 3.84", "signal with controls": "1/9 (3.45)"}
{"CDR-L1": "SGDSLREGYAN", "CDR-L2": "GKNNRPS", "CDR-L3": "SSRDSSGFQVF", "log10 Kd, replicates": "0.93 0.71 0.33", "signal with controls": "2/9 (4.64)"}
{"CDR-L1": "EGDSLREYYKN", "CDR-L2": "GKANRPS", "CDR-L3": "SSRDSSGFQVF", "log10 Kd, replicates": "nd nd nd", "signal with controls": "2/9 (3.39)"}
{"CDR-L1": "EGDSLRYYYAN", "CDR-L2": "GKENKPS", "CDR-L3": "SSRDSSGFQVL", "log10 Kd, replicates": "3.17 3.17 2.87", "signal with controls": "3/9 (3.56)"}
{"CDR-L1": "EGDSLRYYYAN", "CDR-L2": "GKNNRPS", "CDR-L3": "SSRDSSGLQVF", "log10 Kd, replicates": "2.24 2.50 2.20", "signal with controls": "3/9 (3.81)"}
{"CDR-L1": "HSDSLRYYYAN", "CDR-L2": "GKENRPS", "CDR-L3": "SSRDSSGFQVF", "log10 Kd, replicates": "2.52 3.03 3.65", "signal with controls": "2/9 (3.77)"}
{"CDR-L1": "EGDKLCYYYAN", "CDR-L2": "IKNNRPS", "CDR-L3": "SSRDSSGFQVF", "log10 Kd, replicates": "4.34 nd 4.93", "signal with controls": "4/9 (4.07)"}
{"CDR-L1": "EGDSLRIYYAN", "CDR-L2": "FKNNRPS", "CDR-L3": "SSRDSSGGQVF", "log10 Kd, replicates": "4.11 5.62 nd", "signal with controls": "4/9 (4.25)"}
{"CDR-L1": "EGDSLRQYYFN", "CDR-L2": "GKNNRPS", "CDR-L3": "SSRDSSRFQVF", "log10 Kd, replicates": "3.05 3.22 nd", "signal with controls": "2/9 (3.40)"}
{"CDR-L1": "EGDSLRYYYAN", "CDR-L2": "GKNNRIS", "CDR-L3": "SSRDSFGFIVF", "log10 Kd, replicates": "3.36 5.10 3.67", "signal with controls": "5/9 (3.84)"}
{"CDR-L1": "EVDSLRYYYAN", "CDR-L2": "GKNNRPY", "CDR-L3": "SSRDSSGFQVT", "log10 Kd, replicates": "nd 3.94 nd", "signal with controls": "2/9 (4.55)"}
{"CDR-L1": "EGDSLRYYYAW", "CDR-L2": "GKNNRPS", "CDR-L3": "SSRDSSRFQVF", "log10 Kd, replicates": "nd nd nd", "signal with controls": "2/9 (3.65)"}
{"CDR-L1": "EGDSLRYYYAN", "CDR-L2": "SKNGRPS", "CDR-L3": "SSRDSSGFQVF", "log10 Kd, replicates": "4.00 3.05 nd", "signal with controls": "6/9 (3.99)"}

The closing 2 entries, repeated:

{"CDR-L1": "EGDSLRYYYAW", "CDR-L2": "GKNNRPS", "CDR-L3": "SSRDSSRFQVF", "log10 Kd, replicates": "nd nd nd", "signal with controls": "2/9 (3.65)"}
{"CDR-L1": "EGDSLRYYYAN", "CDR-L2": "SKNGRPS", "CDR-L3": "SSRDSSGFQVF", "log10 Kd, replicates": "4.00 3.05 nd", "signal with controls": "6/9 (3.99)"}

Empty control strains, which show no peptide, gave a signal in 28% of pairings with library AAYL52; the median was 3.91 and 95% of these signals were weaker than 2.90. No background was subtracted. For each scFv, signals with the empty controls are counted beside the result, with their mean in brackets.

Values reported by Engelhart et al. 2022, doi:10.1038/s41597-022-01779-4 (FLAb copy).